target: IDO1 (Homo sapiens, UniProt P14902); assay: IDO1 Cellular Assay in HeLa Cells Stimulated with IFNγ; assay type: cell-based; conditions: HeLa cells stimulated with IFNγ 100 ng/mL, about 48 hours

Amino acid sequences for entries named in this document (tags omitted).
UniProt P14902, whole entry: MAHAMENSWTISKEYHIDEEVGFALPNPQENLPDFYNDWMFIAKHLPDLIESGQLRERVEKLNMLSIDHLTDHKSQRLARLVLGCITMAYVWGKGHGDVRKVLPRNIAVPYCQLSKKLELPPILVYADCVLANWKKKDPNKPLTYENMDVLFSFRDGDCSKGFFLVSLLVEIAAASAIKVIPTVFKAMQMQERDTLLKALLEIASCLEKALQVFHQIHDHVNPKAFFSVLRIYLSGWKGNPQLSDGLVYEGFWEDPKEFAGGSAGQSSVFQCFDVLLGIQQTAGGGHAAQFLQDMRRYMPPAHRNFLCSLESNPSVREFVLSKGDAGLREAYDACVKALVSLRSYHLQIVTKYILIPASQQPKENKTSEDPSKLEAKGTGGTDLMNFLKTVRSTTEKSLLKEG

EC50 [nM]	Compound
299	CCOC(=O)c1nn(CC(=O)N2CC[C@@H](Oc3ncccc3C(F)(F)F)C[C@@H]2C)c2c1[C@@H]1C[C@@H]1C2 [Example 72, (3bR,4aR)-ethyl 1-(2-((2S,4R)-2-methyl-4-((3-(trifluoromethyl)pyridin-2-yl)oxy)piperidin-1-yl)-2-oxoethyl)-3b,4,4a,5-tetrahydro-1H-cyclopropa[3,4]cyclopenta[1,2-c]pyrazole-3-carboxylate]
22.5	Cc1ccccc1OC1CCN(C(=O)Cn2nc(C(=O)N3CCO[C@@H](CO)C3)c3c2CCC3)CC1 [Example 45, (R)-2-(3-(2-(hydroxymethyl)morpholine-4-carbonyl)-5,6-dihydrocyclopenta[c]pyrazol-1(4H)-yl)-1-(4-(o-tolyloxy)piperidin-1-yl)ethanone]
270	C[C@@H]1CN(C(=O)c2nn(CC(=O)N3CCC(Oc4ccccc4Cl)C3)c3c2CCC3)C[C@H](C)O1 (stereo partly drawn) [Example 121, 1-[3-(2-chlorophenoxy)pyrrolidin-1-yl]-2-{3-[(2R,6S)-2,6-dimethylmorpholine-4-carbonyl]-5,6-dihydrocyclopenta[c]pyrazol-1(4H)-yl}ethan-1-one]
11.8	C[C@@H]1CN(C(=O)c2nn(CC(=O)N3CCC(Oc4cccc(F)c4)CC3)c3c2CCC3)C[C@H](C)O1 [Example 99, 2-{3-[(2R,6S)-2,6-dimethylmorpholine-4-carbonyl]-5,6-dihydrocyclopenta[c]pyrazol-1(4H)-yl}-1-[4-(3-fluorophenoxy)piperidin-1-yl]ethan-1-one]
11	Cc1cc(F)ccc1OC1CCN(C(=O)Cn2nc(C(=O)N3CCO[C@@H](CO)C3)c3c2CCCC3)CC1 [Example 82, 1-[4-(4-fluoro-2-methyl-phenoxy)-1-piperidyl]-2-[3-[(2R)-2-(hydroxymethyl)morpholine-4-carbonyl]-4,5,6,7-tetrahydroindazol-1-yl]ethanone]
460	CCOC(=O)c1nn(CC(=O)N2CCC(Oc3ncccc3Cl)CC23CC3)c2c1CCCC2 (centres unmarked) [Example 64, ethyl 1-(2-(7-((3-chloropyridin-2-yl)oxy)-4-azaspiro[2.5]octan-4-yl)-2-oxoethyl)-4,5,6,7-tetrahydro-1H-indazole-3-carboxylate]
46.9	C[C@@H]1CN(C(=O)c2nn(CC(=O)N3CCC(Oc4cccc5cnccc45)CC3)c3c2CCC3)C[C@H](C)O1 [Example 156, 2-{3-[(2R,6S)-2,6-dimethylmorpholine-4-carbonyl]-5,6-dihydrocyclopenta[c]pyrazol-1(4H)-yl}-1-{4-[(isoquinolin-5-yl)oxy]piperidin-1-yl}ethan-1-one]
1.77	O=C(c1nn(CC(=O)N2CCC(Oc3ccccc3Cl)C3CC32)c2c1[C@@H]1C[C@@H]1C2)N1CCC(OCCO)CC1 (single isomer, unassigned) [Example 171]
175	C[C@@H]1CN(C(=O)c2nn(CC(=O)N3CCC(OC4CCCC4)CC3)c3c2CCC3)C[C@H](C)O1 [Example 166, 1-(4-(Cyclopentyloxy)piperidin-1-yl)-2-(3-((2S,6R)-2,6-dimethylmorpholine-4-carbonyl)-5,6-dihydrocyclopenta[c]pyrazol-1(4H)-yl)ethan-1-one]
43.9	C[C@@H]1CN(C(=O)c2nn(CC(=O)N3CCC(Oc4ccc(F)c(F)c4F)CC3)c3c2CCC3)C[C@H](C)O1 [Example 155, 2-{3-[(2R,6S)-2,6-dimethylmorpholine-4-carbonyl]-5,6-dihydrocyclopenta[c]pyrazol-1(4H)-yl}-1-[4-(2,3,4-trifluorophenoxy)piperidin-1-yl]ethan-1-one]
192	CCOC(=O)c1nn(CC(=O)N2CC[C@@H](Oc3ncccc3F)C[C@H]2C)c2c1[C@@H]1C[C@@H]1C2 [Example 71, (3bR,4aR)-ethyl 1-(2-((2R,4R)-4-((3-fluoropyridin-2-yl)oxy)-2-methylpiperidin-1-yl)-2-oxoethyl)-3b,4,4a,5-tetrahydro-1H-cyclopropa[3,4]cyclopenta[1,2-c]pyrazole-3-carboxylate]

Reference: patent US12576087B2, “Aryloxypiperidine pyrazole compounds as indoleamine 2,3-dioxygenase inhibitors” (Merck Sharp & Dohme LLC, priority 2018, dated 2026)
